Measurements published in US20220112309A1, “BISPECIFIC ANTIBODY AGAINST CD3 AND CD20 IN COMBINATION THERAPY FOR TREATING DIFFUSE LARGE B-CELL LYMPHOMA” (GENMAB A/S, priority 2020, published 2022).

Columns and labels:
Raji = format: cell-based; conditions: gemcitabine and/or oxaliplatin at EC30 concentrations, with or without epcoritamab, 48 hours
Method: (§1) Briefly, human Burkitt lymphoma (Raji) and DLBCL (SU-DHL-4) cell lines were used as target cells. Cells were cultured in culture medium (RPMI 1640 with HEPES and L-Glutamine supplemented with 10% heat-inactivated donor bovine serum with iron, and 1% [v/v] penicillin/streptomycin) to which 2 mM L-glutamine and 1 mM sodium pyruvate were added, at 37° C., 5% CO2. T cells, isolated from human healthy donor buffy coats (Sanquin) by negative selection using the RosetteSep™ Human T Cell Enrichment Cocktail (Stemcell Technologies), followed by density centrifugation over a Ficoll gradient, both according to the manufacturer's instructions, were used as effector cells. Isolated cells were washed twice in phosphate buffered saline (PBS) and counted using acridine orange/propidium iodide (AO/PI) viability staining solution (Nexcelom Bioscience) on a Cellometer® Auto 2000 Cell Viability Counter. […] B-cell viability and T-cell activation were measured by flow cytometry (count of CD22-positive cells; expression of the T-cell activation markers CD69, CD25, programmed cell death protein 1 (PD-1), and CD107 [lysosomal associated membrane protein 1; LAMP-1] on CD4+ and CD8+ T cells). Absolute cell numbers were determined by adding Accucheck Counting beads (100 μL/well) (Thermofisher) and calculated as follows: […]

SU-DHL-4 = format: cell-based; conditions: SU-DHL-4 cells; gemcitabine and/or oxaliplatin at EC30 concentrations, with or without epcoritamab; 48 hours
Method: as §1

[SP-4-2-(1R-trans)]-(1,2-cyclohexanediamine-N,N′)[ethanedioata(2-)-O,O′]platinum [oxaliplatin]
cytotoxicity of B cells (Raji): induced cytotoxicity of B cells | cytotoxicity of B cells (SU-DHL-4): induced cytotoxicity of B cells
